Measured values from patent US11447493B2 (Kinnate Biopharma Inc., priority 2018, dated 2022).
pIC50: −log10 of the molar value.

The chains behind the UniProt entries cited, without tags or fusion partners. Where a name states a change or a piece, a line headed by the entry shows the natural chain unless it says otherwise.
UniProt P50613: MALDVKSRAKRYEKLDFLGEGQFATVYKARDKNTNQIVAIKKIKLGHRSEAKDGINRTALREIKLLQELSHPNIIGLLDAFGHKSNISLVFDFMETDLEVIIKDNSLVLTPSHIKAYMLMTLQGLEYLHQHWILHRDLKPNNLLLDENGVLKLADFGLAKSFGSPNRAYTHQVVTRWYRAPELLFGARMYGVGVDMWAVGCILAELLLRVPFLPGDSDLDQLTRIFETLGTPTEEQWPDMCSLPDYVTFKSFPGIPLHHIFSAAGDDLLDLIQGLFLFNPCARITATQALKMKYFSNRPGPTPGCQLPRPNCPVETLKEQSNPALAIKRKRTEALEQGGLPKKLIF

What follows are molecules tested against CDK7/CycH/MAT1 (Homo sapiens (Human), UniProt P50613) (assay: Radiometric protein kinase assay (33PanQinase), Assay Condition A (thiol containing)). Settings: thiol containing (1.2 mM DTT), ATP 3.0 μM.
Type: biochemical
Procedure: The IC50 profile of test compounds was determined using three protein kinases.
The compounds were provided as pre-weighed powders in vials. The compounds were dissolved to 1×10^−02M by adding DMSO. 100 μl of each of the resulting stock solutions were transferred into column 2 of four 96 well “master plates”.
Prior to testing, the 1×10^−02M stock solutions in column 2 of the master plates were subjected to a serial, semi-logarithmic dilution using 100% DMSO as a solvent. […] Column 1 and 7 were filled with 100% DMSO as controls. Subsequently, 2×10 μl from each well of the serial diluted copy plates were aliquoted with a 96 channel pipettor into two identical sets of “compound dilution plates”.
In the process, 90 μl H2O were added to each well of a set of compound dilution plates. To minimize potential precipitation, the H2O was added to each plate only a few minutes before the transfer of the compound solutions into the assay plates. Each plate was shaken thoroughly, resulting in a “compound dilution plate/10% DMSO”.
For the assays, 5 μl solution from each well of the compound dilution plates/10% DMSO were transferred into the assay plates. The final volume of the assay was 50 μl. All compounds were tested at 10 final assay concentrations in the range from 1×10^−04M to 3×10^−09M, in singlicate. The final DMSO concentration in the reaction cocktails was 1% in all cases.
All protein kinases were expressed in Sf9 insect cells or in E. coli as recombinant GST-fusion proteins or His-tagged proteins, either as full-length or enzymatically active fragments. All kinases were produced from human cDNAs and purified by either GSH-affinity chromatography or immobilized metal. Affinity tags were removed from a number of kinases during purification. The purity of the protein kinases was examined by SDS-PAGE/Coomassie staining, the identity was checked by mass spectroscopy.
A radiometric protein kinase assay (^33PanQinase® Activity Assay) was used for measuring the kinase activity of the three protein kinases. All kinase assays were performed in 96-well FlashPlates™ from PerkinElmer (Boston, Mass., USA) in a 50 μl reaction volume. The reaction cocktail was pipetted in four steps in the following order: • 20 μl of assay buffer (standard buffer) • 5 μl of ATP solution (in H2O) • 5 μl of test compound (in 10% DMSO) • 20 μl enzyme/substrate mix
The reaction cocktails were incubated at 30° C. for 60 minutes. The reaction was stopped with 50 μl of 2% (v/v) H3PO4, plates were aspirated and washed two times with 200 μl 0.9% (w/v) NaCl. Incorporation of ^33Pi was determined with a microplate scintillation counter (Microbeta, Wallac). All assays were performed with a BeckmanCoulter/SAGIAN™ Core System.
The median value of the counts in column 1 (n=8) of each assay plate was defined as “low control”. This value reflects unspecific binding of radioactivity to the plate in the absence of a protein kinase but in the presence of the substrate. The median value of the counts in column 7 of each assay plate (n=8) was taken as the “high control”, i.e. full activity in the absence of any inhibitor. The difference between high and low control was taken as 100% activity.
As part of the data evaluation the low control value from a particular plate was subtracted from the high control value as well as from all 80 “compound values” of the corresponding plate. The residual activity (in %) for each well of a particular plate was calculated by using the following formula: Res. Activity (%)=100×[(cpm of compound−low control)/(high control−low control)]
The residual activities for each concentration and the compound IC50 values were calculated using Quattro Workflow V3.1.1 (Quattro Research GmbH, Munich, Germany). […] The fitting method used was a least-squares fit.

C=CC(=O)Nc1ccc(C(=O)N2CC[C@@H](Nc3ncc4ccccc4n3)C2)cc1 [Example 26, (R)-N-(4-(3-(quinazolin-2-ylamino)pyrrolidine-1-carbonyl)phenyl)acrylamide] and C=CC(=O)Nc1ccc(C(=O)N2CC[C@@H](Nc3ncc4ccc(OC)cc4n3)C2)cc1 [Example 34, (R)-N-(4-(3-((7-methoxyquinazolin-2-yl)amino)pyrrolidine-1-carbonyl)phenyl)acrylamide] fall in the same range of pIC50: 6.00 to 7.00 for the first, 6.00 to 7.00 for the second.

First: C=CC(=O)N(C)c1ccc(C(=O)N2CC[C@@H](Nc3ncc4ccccc4n3)C2)cc1 [Example 74, (R)—N-methyl-N-(4-(3-(quinazolin-2-ylamino)pyrrolidine-1-carbonyl)phenyl)acrylamide]
Second: CN(C)C/C=C/C(=O)N(C)c1ccc(C(=O)N2CC[C@@H](Nc3ncc4ccccc4n3)C2)cc1 [Example 86, (R,E)-4-(dimethylamino)-N-methyl-N-(4-(3-(quinazolin-2-ylamino)pyrrolidine-1-carbonyl)phenyl)but-2-enamide]
The pIC50 of the first is higher: 6.00 to 7.00 for the first, 5.00 to 6.00 for the second.

First: COc1cc(NC(=O)/C=C/CN(C)C)ccc1C(=O)N1CC[C@@H](Nc2ncc3ccccc3n2)C1 [Example 85, (R,E)-4-(dimethylamino)-N-(3-methoxy-4-(3-(quinazolin-2-ylamino)pyrrolidine-1-carbonyl)phenyl)but-2-enamide]
Second: C=CC(=O)Nc1ccc(C(=O)N2CC[C@@H](Nc3ncc4ccccc4n3)C2)cc1Cl [Example 88, (R)—N-(2-chloro-4-(3-(quinazolin-2-ylamino)pyrrolidine-1-carbonyl)phenyl)acrylamide]
The pIC50 of the first is lower: 5.00 to 6.00 for the first, 6.00 to 7.00 for the second. The second is the more potent here.

These molecules were tested against CDK7 (Homo sapiens (Human), UniProt P50613) (assay: Radiometric protein kinase assay (33PanQinase), Assay Condition B (thiol-free)). Settings: thiol-free (1 mM TCEP).
Type: biochemical
Procedure: The IC50 profile of compounds was determined using one protein kinase in a customized, thiol free assay. […] Prior to testing, the 1×10^−03 M stock solutions in column 2 of the master plates were subjected to a serial, semi-logarithmic dilution using 100% DMSO as a solvent. […] Column 1 and 7 were filled with 100% DMSO as controls. Subsequently, 2×10 microliter from each well of the serial diluted copy plates were aliquoted with a 96 channel pipettor into two identical sets of “compound dilution plates”. All plates were barcoded for automated identification and tracking purposes. […] All compounds were stored as powder until being solubilized in DMSO. Solubilized compounds were stored as 1×10^−02M/100% DMSO stock solutions. Prior to the assay process, 90 microliters of H2O were added to each well of a set of compound dilution plates. To minimize potential precipitation, the H2O was added to each plate only a few minutes before the transfer of the compound solutions into the assay plates. Each plate was shaken thoroughly, resulting in compound dilution plates with a final of 10% DMSO. For each assay, 5 microliters of solution from each well of the compound dilution plates/10% DMSO were transferred into the assay plate. The final volume of the assay was 50 μl. All compounds were tested at 10 final assay concentrations in the range from 1×10^−05M to 3×10^−10 M, in singlicate. The final DMSO concentration in the reaction cocktails was 1% in all cases. […] This was done so there would be no interference with the key cysteines in the proteins of interest.
For data analysis, the median value of the counts in column 1 (n=8) of each assay plate was defined as “low control”. This value reflects unspecific binding of radioactivity to the plate in the absence of a protein kinase but in the presence of the substrate. The median value of the counts in column 7 of each assay plate (n=8) was taken as the “high control”, i.e. full activity in the absence of any inhibitor. The difference between high and low control was taken as 100% activity. As part of the data evaluation the low control value from a particular plate was subtracted from the high control value as well as from all 80 “compound values” of the corresponding plate. The residual activity (in %) for each well of a particular plate was calculated by using the following formula: Res. Activity (%)=100×[(cpm of compound−low control)/(high control−low control)]
The residual activities for each concentration and the compound IC50 values were calculated using Quattro Workflow V3.1.1 (Quattro Research GmbH, Munich, Germany; www.quattro-research.com). […] The fitting method used was a least-squares fit. As a parameter for assay quality, the Z′-factor (Zhang et al., J. Biomol. Screen. 2: 67-73, 1999) for the low and high controls of each assay plate (n=8) was used. ProQinase's criterion for repetition of an assay plate is a Z′-factor below 0.4 (Iversen et al., J. Biomol. Screen. 3: 247-252, 2006).

C=CC(=O)Nc1ccc(C(=O)N2CC[C@@H](Nc3cc4ccccc4cn3)C2)cc1 [Example 27, (R)-N-(4-(3-(isoquinolin-3-ylamino)pyrrolidine-1-carbonyl)phenyl)acrylamide] and C=CC(=O)Nc1ccc(C(=O)N2CC[C@@H](Nc3ncc4cc(F)ccc4n3)C2)cc1 [Example 28, (R)-N-(4-(3-((6-fluoroquinazolin-2-yl)amino)pyrrolidine-1-carbonyl)phenyl)acrylamide] fall in the same range of pIC50: 5.00 to 6.00 for the first, 5.00 to 6.00 for the second.

Compared with C=CC(=O)Nc1ccc(C(=O)N2CC[C@@H](Nc3ncc4ccc(S(C)(=O)=O)cc4n3)C2)cc1 [Example 33, (R)-N-(4-(3-((7-(methylsulfonyl)quinazolin-2-yl)amino)pyrrolidine-1-carbonyl)phenyl)acrylamide], C=CC(=O)Nc1ccc(C(=O)N2CC[C@@H](Nc3ncc4ccc(C#N)cc4n3)C2)cc1 [Example 37, (R)—N-(4-(3-((7-cyanoquinazolin-2-yl)amino)pyrrolidine-1-carbonyl)phenyl)acrylamide] is lower in pIC50: 6.00 to 7.00 for the first, 5.00 to 6.00 for the second. The first is the more potent here.

Compared with C=CC(=O)Nc1ccc(C(=O)N2CC[C@@H](Nc3ncc4ccc(=O)n(C(C)C)c4n3)C2)cc1 [Example 43, (R)—N-(4-(3-((8-isopropyl-7-oxo-7,8-dihydropyrido[2,3-d]pyrimidin-2-yl)amino)pyrrolidine-1-carbonyl)phenyl)acrylamide], CCC(=O)Nc1ccc(C(=O)N2CC[C@@H](Nc3ncc4ccc(=O)n(C(C)C)c4n3)C2)cc1 [Example 61, (R)—N-(4-(3-((8-isopropyl-7-oxo-7,8-dihydropyrido[2,3-d]pyrimidin-2-yl)amino)pyrrolidine-1-carbonyl)phenyl)propionamide] is lower in pIC50: 6.00 to 7.00 for the first, 5.00 to 6.00 for the second. The first is the more potent here.

First: CCC(=O)Nc1ccc(C(=O)N2CC[C@@H](Nc3ncc4ccccc4n3)C2)cc1 [Example 44, (R)—N-(4-(3-(quinazolin-2-ylamino)pyrrolidine-1-carbonyl)phenyl)propionamide]
Second: C=CC(=O)N(C)c1ccc(C(=O)N2CC[C@@H](Nc3ncc4ccccc4n3)C2)cc1 [Example 74, (R)—N-methyl-N-(4-(3-(quinazolin-2-ylamino)pyrrolidine-1-carbonyl)phenyl)acrylamide]
The pIC50 of the first is lower: 5.00 to 6.00 for the first, 6.00 to 7.00 for the second. The second is the more potent here.

C=CC(=O)Nc1ccc(C(=O)N2CC[C@@H](Nc3ncc4ccccc4n3)C2)cc1F [Example 62, (R)—N-(2-fluoro-4-(3-(quinazolin-2-ylamino)pyrrolidine-1-carbonyl)phenyl)acrylamide] and C=CC(=O)Nc1ccc(C(=O)N2CC[C@@H](Nc3ncc4ccccc4n3)C2)cc1Cl [Example 88, (R)—N-(2-chloro-4-(3-(quinazolin-2-ylamino)pyrrolidine-1-carbonyl)phenyl)acrylamide] fall in the same range of pIC50: 6.00 to 7.00 for the first, 6.00 to 7.00 for the second.
